Reference: patent publication US12172993B2 (priority 2018, dated 2024)

Protein sequences, listed by entry. Tags and fused reporters are not part of them. Lines headed by an entry give the natural chain unless they say otherwise; changes in a name come on top. Residues count along the entry.
UniProt P07949, 29-1114 limits assumed: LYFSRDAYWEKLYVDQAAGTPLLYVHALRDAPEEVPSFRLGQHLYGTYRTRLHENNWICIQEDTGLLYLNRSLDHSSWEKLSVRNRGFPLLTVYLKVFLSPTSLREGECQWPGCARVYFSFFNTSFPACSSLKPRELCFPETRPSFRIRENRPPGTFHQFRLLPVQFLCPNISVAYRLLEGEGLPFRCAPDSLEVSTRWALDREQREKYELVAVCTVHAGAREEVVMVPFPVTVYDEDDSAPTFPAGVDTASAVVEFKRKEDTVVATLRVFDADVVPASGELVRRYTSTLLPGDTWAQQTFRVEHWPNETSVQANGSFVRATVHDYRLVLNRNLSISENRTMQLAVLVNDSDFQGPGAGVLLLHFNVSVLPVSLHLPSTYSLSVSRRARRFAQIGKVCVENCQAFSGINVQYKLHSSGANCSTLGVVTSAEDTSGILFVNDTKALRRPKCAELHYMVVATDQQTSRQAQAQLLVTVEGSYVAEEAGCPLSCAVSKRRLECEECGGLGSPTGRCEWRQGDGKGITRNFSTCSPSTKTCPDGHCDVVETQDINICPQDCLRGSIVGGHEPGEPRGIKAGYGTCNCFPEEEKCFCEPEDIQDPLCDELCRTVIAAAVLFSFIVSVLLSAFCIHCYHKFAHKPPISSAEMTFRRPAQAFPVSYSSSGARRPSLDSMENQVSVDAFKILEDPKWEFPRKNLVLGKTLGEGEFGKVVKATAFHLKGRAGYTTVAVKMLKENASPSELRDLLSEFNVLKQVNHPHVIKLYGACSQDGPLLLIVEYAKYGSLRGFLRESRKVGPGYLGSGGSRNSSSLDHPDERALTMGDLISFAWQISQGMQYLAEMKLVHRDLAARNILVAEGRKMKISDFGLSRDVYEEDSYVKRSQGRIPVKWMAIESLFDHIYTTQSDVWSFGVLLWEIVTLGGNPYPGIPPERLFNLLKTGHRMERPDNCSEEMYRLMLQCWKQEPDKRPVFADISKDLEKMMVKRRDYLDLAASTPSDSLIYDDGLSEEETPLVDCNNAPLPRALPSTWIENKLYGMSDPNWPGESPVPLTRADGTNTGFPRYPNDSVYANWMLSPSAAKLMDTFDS
UniProt P04629, 33-796 limits assumed: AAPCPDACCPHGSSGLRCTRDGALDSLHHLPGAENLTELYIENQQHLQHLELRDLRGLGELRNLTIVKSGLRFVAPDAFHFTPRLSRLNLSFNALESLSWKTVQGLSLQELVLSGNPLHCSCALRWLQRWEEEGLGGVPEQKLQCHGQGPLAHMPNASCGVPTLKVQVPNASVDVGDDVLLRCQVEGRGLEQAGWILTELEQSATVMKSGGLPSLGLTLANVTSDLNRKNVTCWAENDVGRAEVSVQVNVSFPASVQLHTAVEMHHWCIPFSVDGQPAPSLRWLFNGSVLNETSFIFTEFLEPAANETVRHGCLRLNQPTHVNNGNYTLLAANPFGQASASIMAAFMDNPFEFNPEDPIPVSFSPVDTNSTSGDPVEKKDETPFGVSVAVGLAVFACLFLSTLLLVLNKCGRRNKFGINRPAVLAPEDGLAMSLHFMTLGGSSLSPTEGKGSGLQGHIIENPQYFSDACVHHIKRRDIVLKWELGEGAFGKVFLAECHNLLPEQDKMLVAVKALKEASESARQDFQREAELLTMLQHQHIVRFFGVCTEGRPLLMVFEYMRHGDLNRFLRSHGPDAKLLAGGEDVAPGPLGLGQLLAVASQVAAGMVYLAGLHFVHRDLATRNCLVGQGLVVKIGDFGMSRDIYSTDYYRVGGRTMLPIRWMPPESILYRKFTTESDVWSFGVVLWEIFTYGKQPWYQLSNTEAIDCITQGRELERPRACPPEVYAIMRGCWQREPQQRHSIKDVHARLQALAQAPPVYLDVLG
UniProt Q16620, 32-822 limits assumed: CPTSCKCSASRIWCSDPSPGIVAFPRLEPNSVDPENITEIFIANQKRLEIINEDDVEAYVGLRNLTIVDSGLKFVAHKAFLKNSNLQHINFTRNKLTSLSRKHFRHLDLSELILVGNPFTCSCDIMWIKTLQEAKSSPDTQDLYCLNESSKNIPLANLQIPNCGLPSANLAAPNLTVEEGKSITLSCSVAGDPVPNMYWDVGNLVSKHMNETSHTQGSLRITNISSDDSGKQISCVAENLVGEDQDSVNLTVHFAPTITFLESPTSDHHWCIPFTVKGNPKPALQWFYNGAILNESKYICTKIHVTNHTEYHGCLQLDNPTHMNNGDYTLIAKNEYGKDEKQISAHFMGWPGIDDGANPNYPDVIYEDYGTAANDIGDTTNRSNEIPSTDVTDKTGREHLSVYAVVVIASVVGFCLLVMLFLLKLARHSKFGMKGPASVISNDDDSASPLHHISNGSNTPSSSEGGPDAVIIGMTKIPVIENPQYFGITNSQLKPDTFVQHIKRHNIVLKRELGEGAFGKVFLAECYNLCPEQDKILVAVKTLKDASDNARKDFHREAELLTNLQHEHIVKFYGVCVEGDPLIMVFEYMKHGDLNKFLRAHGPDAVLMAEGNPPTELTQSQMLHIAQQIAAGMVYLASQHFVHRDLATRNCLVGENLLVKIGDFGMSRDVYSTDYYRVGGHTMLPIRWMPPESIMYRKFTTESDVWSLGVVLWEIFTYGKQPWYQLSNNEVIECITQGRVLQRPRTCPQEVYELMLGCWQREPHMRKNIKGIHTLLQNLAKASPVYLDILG
UniProt Q16288, 32-839 limits assumed: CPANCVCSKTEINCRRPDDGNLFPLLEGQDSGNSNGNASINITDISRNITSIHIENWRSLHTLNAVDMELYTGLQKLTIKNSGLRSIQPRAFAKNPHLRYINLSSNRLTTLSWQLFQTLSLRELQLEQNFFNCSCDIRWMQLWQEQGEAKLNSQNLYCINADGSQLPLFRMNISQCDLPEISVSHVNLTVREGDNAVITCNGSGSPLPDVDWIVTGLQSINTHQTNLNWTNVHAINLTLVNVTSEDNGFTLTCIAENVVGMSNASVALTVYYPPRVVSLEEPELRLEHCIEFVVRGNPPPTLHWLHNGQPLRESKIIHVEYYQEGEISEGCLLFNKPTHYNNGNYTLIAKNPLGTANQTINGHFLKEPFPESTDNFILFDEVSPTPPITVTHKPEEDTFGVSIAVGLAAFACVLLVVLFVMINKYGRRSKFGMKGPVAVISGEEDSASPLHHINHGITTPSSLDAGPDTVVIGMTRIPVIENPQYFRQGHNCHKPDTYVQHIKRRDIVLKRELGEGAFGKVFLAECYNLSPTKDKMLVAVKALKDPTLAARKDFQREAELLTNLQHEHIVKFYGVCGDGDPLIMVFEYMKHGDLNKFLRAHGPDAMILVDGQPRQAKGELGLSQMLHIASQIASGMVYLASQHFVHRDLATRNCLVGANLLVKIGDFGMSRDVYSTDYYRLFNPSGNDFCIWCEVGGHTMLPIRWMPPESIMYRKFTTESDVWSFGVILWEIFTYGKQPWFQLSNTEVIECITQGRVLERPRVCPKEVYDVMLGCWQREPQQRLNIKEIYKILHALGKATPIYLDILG
UniProt Q04771, 21-509 limits assumed: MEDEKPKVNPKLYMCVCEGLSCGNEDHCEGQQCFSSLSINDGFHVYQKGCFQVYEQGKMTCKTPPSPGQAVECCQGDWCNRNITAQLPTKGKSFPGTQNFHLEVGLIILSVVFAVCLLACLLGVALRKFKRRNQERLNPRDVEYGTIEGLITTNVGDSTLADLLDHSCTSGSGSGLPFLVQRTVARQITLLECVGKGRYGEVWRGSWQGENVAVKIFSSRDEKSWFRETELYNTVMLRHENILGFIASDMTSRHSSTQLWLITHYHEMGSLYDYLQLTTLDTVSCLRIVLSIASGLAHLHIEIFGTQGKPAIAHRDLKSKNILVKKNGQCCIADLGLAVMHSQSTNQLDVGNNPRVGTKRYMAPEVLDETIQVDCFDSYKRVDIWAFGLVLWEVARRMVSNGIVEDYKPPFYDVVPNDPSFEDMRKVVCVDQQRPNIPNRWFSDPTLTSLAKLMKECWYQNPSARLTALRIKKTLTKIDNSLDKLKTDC
UniProt P36896, 24-505 limits assumed: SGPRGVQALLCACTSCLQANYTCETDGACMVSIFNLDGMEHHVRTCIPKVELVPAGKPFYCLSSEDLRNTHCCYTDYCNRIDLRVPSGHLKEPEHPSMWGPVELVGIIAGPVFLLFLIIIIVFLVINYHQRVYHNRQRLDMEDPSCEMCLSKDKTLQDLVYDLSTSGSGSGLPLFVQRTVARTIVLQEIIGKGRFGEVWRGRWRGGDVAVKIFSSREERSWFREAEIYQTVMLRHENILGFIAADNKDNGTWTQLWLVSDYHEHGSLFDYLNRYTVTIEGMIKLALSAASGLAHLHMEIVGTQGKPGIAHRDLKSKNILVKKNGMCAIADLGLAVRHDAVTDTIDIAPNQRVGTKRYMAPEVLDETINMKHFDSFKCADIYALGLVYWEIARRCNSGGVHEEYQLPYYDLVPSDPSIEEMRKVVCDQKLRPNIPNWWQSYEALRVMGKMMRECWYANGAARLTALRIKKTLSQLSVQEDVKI
UniProt P27037, 20-513 limits assumed: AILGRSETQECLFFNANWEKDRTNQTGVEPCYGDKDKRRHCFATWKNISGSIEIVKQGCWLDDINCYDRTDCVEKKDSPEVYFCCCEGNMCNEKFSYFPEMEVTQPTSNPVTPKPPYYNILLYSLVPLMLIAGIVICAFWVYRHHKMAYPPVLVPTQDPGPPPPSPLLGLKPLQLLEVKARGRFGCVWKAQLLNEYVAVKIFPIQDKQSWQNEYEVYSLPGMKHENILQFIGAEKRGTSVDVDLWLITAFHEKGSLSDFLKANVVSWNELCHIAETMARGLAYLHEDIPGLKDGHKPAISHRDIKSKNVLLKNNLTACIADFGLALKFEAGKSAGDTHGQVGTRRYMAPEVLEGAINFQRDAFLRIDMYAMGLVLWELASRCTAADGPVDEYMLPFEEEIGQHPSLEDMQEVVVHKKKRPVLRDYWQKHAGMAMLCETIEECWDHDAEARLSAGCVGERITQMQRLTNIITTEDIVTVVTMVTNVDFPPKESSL
UniProt P36897, 34-503 limits assumed: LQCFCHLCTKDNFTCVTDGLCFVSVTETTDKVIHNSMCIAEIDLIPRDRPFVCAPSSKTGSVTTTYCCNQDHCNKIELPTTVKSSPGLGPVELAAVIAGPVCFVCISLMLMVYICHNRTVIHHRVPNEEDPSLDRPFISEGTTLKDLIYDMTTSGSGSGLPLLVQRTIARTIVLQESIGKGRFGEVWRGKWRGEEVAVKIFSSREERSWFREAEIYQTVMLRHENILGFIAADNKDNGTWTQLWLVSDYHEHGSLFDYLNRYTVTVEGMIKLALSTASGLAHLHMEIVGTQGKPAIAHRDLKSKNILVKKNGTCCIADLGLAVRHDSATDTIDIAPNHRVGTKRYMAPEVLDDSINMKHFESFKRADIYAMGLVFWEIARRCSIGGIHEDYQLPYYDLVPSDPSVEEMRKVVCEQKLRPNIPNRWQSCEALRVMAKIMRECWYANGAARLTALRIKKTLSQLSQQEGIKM

Key:
[1] = target: ABL1 wt (Homo sapiens (Human), UniProt P00519); assay: biochemical
[2] = target: ABL1 G250E (Homo sapiens, UniProt P00519, G250E); type: biochemical
[3] = target: ABL1 Q252H (Homo sapiens, UniProt P00519, Q252H); type: biochemical
[4] = target: ABL1 Y253F (Homo sapiens, UniProt P00519, Y253F); type: biochemical
[5] = target: ABL1 E255K (Homo sapiens, UniProt P00519, E255K); type: biochemical
[6] = target: ABL1 T315I (Homo sapiens, UniProt P00519, T315I); type: biochemical
[7] = target: ABL1 F317I (Homo sapiens, UniProt P00519, F317I); type: biochemical
[8] = target: ABL1 M351T (Homo sapiens, UniProt P00519, M351T); type: biochemical
[9] = target: ABL1 H396P (Homo sapiens, UniProt P00519, H396P); type: biochemical
[10] = target: SRC (GST-HIS-tag) (Homo sapiens (Human), UniProt P12931); assay: biochemical
[11] = target: T1, MAP3K11 (Homo sapiens (Human), UniProt Q16584)
[12] = target: T2, RET (Homo sapiens (Human), UniProt P07949)
[13] = target: T3, MST4 (Homo sapiens (Human), UniProt Q9P289)
[14] = system: WSU-NHL cell line; assay: cells; details: Homo sapiens, 96 h
[15] = system: DOHH-2 cell line; assay: cells; details: Homo sapiens, DOHH-2, 96 h
[16] = target: T1, MAP3K11; assay: biochemical; details: read-out: Residual activity (%) at 1 μM, MAP3K11
[17] = target: p38-beta (Homo sapiens (Human), UniProt Q15759); assay: biochemical; details: read-out: Residual activity (%) at 1 μM
[18] = target: T2, RET; assay: biochemical; details: read-out: Residual activity (%) at 1 μM, RET
[19] = target: Aurora A (Homo sapiens (Human), UniProt O14965); assay: biochemical; details: read-out: Residual activity (%) at 1 μM
[20] = target: Aurora B (Homo sapiens (Human), UniProt Q96GD4); assay: biochemical; details: read-out: Residual activity (%) at 1 μM
[21] = target: MAP3K9 (Homo sapiens (Human), UniProt P80192); assay: biochemical; details: read-out: Residual activity (%) at 1 μM
[22] = target: MAP3K10 (Homo sapiens (Human), UniProt Q02779); assay: biochemical; details: read-out: Residual activity (%) at 1 μM
[23] = target: T3, MST4; assay: biochemical; details: read-out: Residual activity (%) at 1 μM
[24] = target: MYLK2 (Homo sapiens (Human), UniProt Q9H1R3); assay: biochemical; details: read-out: Residual activity (%) at 1 μM
[25] = target: RPS6KA6 (Homo sapiens (Human), UniProt Q9UK32); assay: biochemical; details: read-out: Residual activity (%) at 1 μM
[26] = target: TBK1 (Homo sapiens (Human), UniProt Q9UHD2); assay: biochemical; details: read-out: Residual activity (%) at 1 μM
[27] = target: TRKA (Homo sapiens (Human), UniProt P04629); assay: biochemical; details: read-out: Residual activity (%) at 1 μM
[28] = target: TRKB (Homo sapiens (Human), UniProt Q16620); assay: biochemical; details: read-out: Residual activity (%) at 1 μM
[29] = target: TRKC (Homo sapiens (Human), UniProt Q16288); assay: biochemical; details: read-out: Residual activity (%) at 1 μM
[30] = target: VEGF-R1 (Homo sapiens (Human), UniProt P17948); assay: biochemical; details: read-out: Residual activity (%) at 1 μM
[31] = target: WEE1 (Homo sapiens (Human), UniProt P30291); assay: biochemical; details: read-out: Residual activity (%) at 1 μM
[32] = target: ACV-R1 (Homo sapiens (Human), UniProt Q04771); assay: biochemical; details: read-out: Residual activity (%) at 1 μM
[33] = target: ACV-R1B (Homo sapiens (Human), UniProt P36896); assay: biochemical; details: read-out: Residual activity (%) at 1 μM
[34] = target: ACV-R2A (Homo sapiens (Human), UniProt P27037); assay: biochemical; details: read-out: Residual activity (%) at 1 μM
[35] = target: BRAF (Homo sapiens (Human), UniProt P15056); assay: biochemical; details: read-out: Residual activity (%) at 1 μM, BRAF
[36] = target: p38-alpha (Homo sapiens (Human), UniProt Q16539); assay: biochemical; details: read-out: Residual activity (%) at 1 μM
[37] = target: T4, TGFB-R1 (Homo sapiens (Human), UniProt P36897); assay: biochemical; details: read-out: Residual activity (%) at 1 μM
[38] = target: T4, TGFB-R1; assay: biochemical
[39] = physchem; details: kinetic from dmso stock

With `Cc1nc(Nc2ncc(C(=O)Nc3c(Br)ccnc3C)s2)cc(N2CCN(CCO)CC2)n1` [Compound C3, N-(4-bromo-2-methylpyridin-3-yl)-2-((6-(4-(2-hydroxyethyl)piperazin-1-yl)-2-methylpyrimidin-4-yl)amino)thiazole-5-carboxarmide] the IC50 [1] was 18.3 nM, the IC50 [2] was 101 nM and the IC50 [3] was 29.7 nM. The IC50 [4] was 16.1 nM, the IC50 [5] was 111 nM and the IC50 [6] was 43.8 µM. For the same compound, the IC50 [7] was 823 nM, the IC50 [8] was 37 nM and the IC50 [9] was 32.5 nM.
In the case of `Cc1nc(Nc2ncc(C(=O)Nc3c(C)cncc3Cl)s2)cc(N2CCN(CCO)CC2)n1` [Compound C4, N-(3-chloro-5-methylpyridin-4-yl)-2-((6-(4-(2-hydroxyethyl)piperazin-1-yl)-2-methylpyrimidin-4-yl)amino)thiazole-5-carboxamide], the IC50 [1] is reported as 9.2 nM, the IC50 [2] is reported as 45.6 nM and the IC50 [3] is reported as 15.2 nM. The IC50 [4] was 11 nM, the IC50 [5] was 51.6 nM and the IC50 [6] was 23.4 µM. It also gave an IC50 [7] of 189 nM, an IC50 [8] of 19.4 nM and an IC50 [9] of 13.2 nM.
For `Cc1nc(Nc2ncc(C(=O)Nc3c(C)csc3Cl)s2)cc(N2CCN(CCO)CC2)n1` [Compound C7, N-(2-chloro-4-methylthiophen-3-yl)-2-((6-(4-(2-hydroxyethyl)piperazin-1-yl)-2-methylpyrimidin-4-yl)amino)thiazole-5-carboxamide], the IC50 [10] was ~1.5 nM, the “Residual activity (%) at 1 μM” value [11] was 16% and the “Residual activity (%) at 1 μM” value [12] was 23%. The “Residual activity (%) at 1 μM” value [13] was 41%, the GI50 [14] was ~8 nM and the GI50 [15] was ~9 nM. The remaining activity at 1 µM [16] was 16%, the remaining activity at 1 µM [17] was 13% and the remaining activity at 1 µM [18] was 23%. The remaining activity at 1 µM [19] was 37%, the remaining activity at 1 µM [20] was 49% and the remaining activity at 1 µM [21] was 43%. For the same compound, the remaining activity at 1 µM [22] was 41%, the remaining activity at 1 µM [23] was 41% and the remaining activity at 1 µM [24] was 51%. It also gave a remaining activity at 1 µM [25] of 49%, a remaining activity at 1 µM [26] of 49% and a remaining activity at 1 µM [27] of 29%. It also gave a remaining activity at 1 µM [28] of 52%, a remaining activity at 1 µM [29] of 29% and a remaining activity at 1 µM [30] of 50%. For the same compound, the remaining activity at 1 µM [31] was 33%, the remaining activity at 1 µM [32] was 12% and the remaining activity at 1 µM [33] was 1 to 2%. It also gave a remaining activity at 1 µM [34] of 2 to 3%, a remaining activity at 1 µM [35] of 8 to 9% and a remaining activity at 1 µM [36] of 3 to 4%. For the same compound, the remaining activity at 1 µM [37] was 1 to 2% and the IC50 [38] was ~490 nM.
In the case of `Cc1nc(Nc2ncc(C(=O)N[C@H]3CN4CCC3CC4)s2)cc(N2CCN(CCO)CC2)n1` [Compound C12, (R)-2-((6-(4-(2-hydroxyethyl)piperazin-1-yl)-2-methylpyrimidin-4-yl)amino)-N-(quinuclidine-3-yl)thiazole-5-carboxamide], the IC50 [10] is reported as < 100 nM and the solubility kinetic [39] is reported as 195 µM (≈ 92.2 µg/mL).

Converted amounts (≈) assume the structure as drawn.
